Assay results as given in patent US7579371B2, “Methods of using [3.2.0] heterocyclic compounds and analogs thereof” (Nereus Pharmaceuticals, Inc., priority 2004, dated 2009).
pEC50: −log10 of the molar value.

Amino acid sequences for entries named in this document (tags omitted). Residues count along the entry.
UniProt G1T4Q9, 1-263: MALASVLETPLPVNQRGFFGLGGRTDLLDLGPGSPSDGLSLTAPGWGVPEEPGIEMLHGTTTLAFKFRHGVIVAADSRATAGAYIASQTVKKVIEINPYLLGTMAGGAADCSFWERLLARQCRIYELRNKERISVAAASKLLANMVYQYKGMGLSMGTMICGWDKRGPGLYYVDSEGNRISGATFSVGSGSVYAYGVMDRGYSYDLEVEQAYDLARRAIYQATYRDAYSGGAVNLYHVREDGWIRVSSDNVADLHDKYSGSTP

What was measured:
[1] = target: rabbit muscle 20S proteasome, chymotrypsin-like activity (Oryctolagus cuniculus, UniProt G1T4Q9); experiment: Chymotrypsin-like activity of purified rabbit muscle 20S proteasome (suc-LLVY-AMC); assay type: biochemical
[2] = target: T1, rabbit muscle 20S proteasome, trypsin-like activity (Oryctolagus cuniculus, UniProt G1SWK8); experiment: Trypsin-like activity of purified rabbit 20S proteasome (Boc-LRR-AMC)
T1 sequence (G1SWK8 1-271): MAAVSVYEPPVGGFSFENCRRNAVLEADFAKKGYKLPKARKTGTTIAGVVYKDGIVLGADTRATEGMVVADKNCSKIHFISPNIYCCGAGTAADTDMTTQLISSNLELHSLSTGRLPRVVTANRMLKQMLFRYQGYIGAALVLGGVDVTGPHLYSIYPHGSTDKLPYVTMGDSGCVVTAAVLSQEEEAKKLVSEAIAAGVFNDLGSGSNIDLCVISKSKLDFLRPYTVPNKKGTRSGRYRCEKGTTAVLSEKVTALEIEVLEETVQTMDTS

C[C@@]12OC(=O)[C@]1([C@@H](O)[C@@H]1C=CCCC1)NC(=O)[C@@H]2CCCl [Formula II-16, Salinosporamide A]
pEC50 [1]: 7.96 to 8.70
pEC50 [2]: ~8.00
